Test results as given in paper PMC8044178, “Structural basis of norepinephrine recognition and transport inhibition in neurotransmitter transporters” (Nature Communications, 2021).

The chains behind the UniProt entries cited, without tags or fusion partners. A line that says so, or that is headed by a name, gives the form on record, which may keep a tag or linker.
UniProt Q7K4Y6, other isoform, or with tags, fused parts or gaps V74A/A117S/DEL164-191/L415A/A428S/F471L: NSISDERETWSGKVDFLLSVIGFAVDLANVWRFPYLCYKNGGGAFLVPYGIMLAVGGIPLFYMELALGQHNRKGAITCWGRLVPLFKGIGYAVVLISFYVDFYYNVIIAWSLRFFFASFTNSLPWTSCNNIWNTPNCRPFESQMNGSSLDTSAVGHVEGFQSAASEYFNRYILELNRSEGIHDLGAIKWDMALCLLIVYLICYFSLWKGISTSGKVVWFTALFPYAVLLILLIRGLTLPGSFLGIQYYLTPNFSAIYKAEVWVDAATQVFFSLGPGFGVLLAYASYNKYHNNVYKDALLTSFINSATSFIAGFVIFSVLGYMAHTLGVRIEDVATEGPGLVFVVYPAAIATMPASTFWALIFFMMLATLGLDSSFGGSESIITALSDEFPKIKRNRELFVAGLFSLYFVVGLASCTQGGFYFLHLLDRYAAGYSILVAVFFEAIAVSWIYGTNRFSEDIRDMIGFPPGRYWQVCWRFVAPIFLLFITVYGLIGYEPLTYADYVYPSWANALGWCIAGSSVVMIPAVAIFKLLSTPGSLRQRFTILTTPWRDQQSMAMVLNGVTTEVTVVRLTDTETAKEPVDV

Target: T1, dDATfc A117S/A428S (Drosophila melanogaster, UniProt Q7K4Y6, A117S/A428S/DEL164-191/F471L/L415A/V74A)
T1 construct: expressed in transfected cells; host or cells: HEK293S GnTI- cells, transient transfection with pEG-BacMam plasmid
Assay type: cell-based
Conditions: double mutant vs dDATfc

COc1cccc(C2(O)CCCCC2CN(C)C)c1 (stereo not shown) [Tramadol, tramadol]
increase in IC50 values, combination of A428S and A117S: ~ 5 fold
